# Assay results taken from patent US20100260680A1, “NOVEL BONE MASS INCREASING AGENT” (ORIENTAL YEAST CO., LTD., priority 2007, published 2010).
# B1: BMP-2: BMP-2 (R&D), known bone morphogenetic factor used as positive control (protein, UniProt P12643 283-396, looked up)
# Bone morphogenetic protein 2: QAKHKQRKRLKSSCKRHPLYVDFSDVGWNDWIVAPPGYHAFYCHGECPFPLADHLNSTNHAIVQTLVNSVNSKIPKACCVPTELSAISMLYLDENEKVVLKNYQDMVVEGCGCR
# Test system: C2C12 cells
# Assay: ALP activity determination in C2C12 cells
# Assay type: cell-based, mouse
# Conditions: 100 and 200 ng/ml BMP-2 alone; 6 days
# Protocol: Seven days after differentiation, the culture supernatant was removed from each plate and the cells were fixed with an acetone/ethanol solution. The ALP activity was determined using p-nitrophenyl phosphate as a substrate. Specifically, a carbonate buffer (5 mM MgCl2, 50 mM NaHCO3) containing p-nitrophenyl phosphate (Nacalai) (1 mg/mL) was added to each well (100 μL/well), followed by incubation at 37° C. Then, the OD value at 405 nm was determined with the use of a microplate reader (BMG Labtech) for each well.
# C2C12 cells, which are mouse myoblast precursor cells, were seeded on a 96-well plate (6.5×10^3 cells/well). After 48 hours, the culture supernatant was replaced with 5% FBS+DMEM (SIGMA) containing 300 ng/mL BMP-2 (R&D). During medium replacement, an antibody (100 ng/mL) was added thereto, followed by culture for 7 days.
# In order to examine synergistic effects of peptide D and BMP-2, ALP activity determination was carried out using C2C12 cells in which ALP activity enhancement takes place depending on the addition of BMP-2. C2C12 cells mixed with 5% FBS+αMEM (SIGMA) were seeded on a 96-well plate (1×10^4 cells/well). After 6 hours, the medium was removed therefrom. […]
molecule,measurement,value
B1,ALP activity,enhanced ALP activity in a concentration-dependent manner
